Measured values published in the OPERA property sets (Mansouri et al. 2018).

Details: fish

Cc1cc([N+](=O)[O-])cc([N+](=O)[O-])c1O
log10 BCF: 0.46
